From patent US20210206847A1

Protein sequences, listed by entry. Tags and fused reporters are not part of them. Residues count along the entry.
UniProt P55899, 24-297, chain 1 of 2: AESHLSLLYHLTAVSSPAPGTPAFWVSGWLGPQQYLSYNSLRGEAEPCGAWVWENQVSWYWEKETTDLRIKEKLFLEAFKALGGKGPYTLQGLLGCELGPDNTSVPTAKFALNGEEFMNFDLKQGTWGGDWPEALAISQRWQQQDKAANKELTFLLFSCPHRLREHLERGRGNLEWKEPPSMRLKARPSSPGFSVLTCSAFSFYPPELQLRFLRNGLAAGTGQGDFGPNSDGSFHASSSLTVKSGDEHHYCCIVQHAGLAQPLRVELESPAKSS

Biological target: biotin-labeled soluble FcRn protein (UniProt P55899)
Assay: SPR; pH 6.0

IgG1 Fc (from UniProt P01857 104-330)
Kd: 77.3 nM
